Source: paper PMC5543288, “Psychostimulant Effect of the Synthetic Cannabinoid JWH-018 and AKB48: Behavioral, Neurochemical, and Dopamine Transporter Scan Imaging Studies in Mice” (Frontiers in Psychiatry, 2017)

Tested on: DA release in the nucleus accumbens (NAc) shell
Assay: In vivo brain microdialysis, NAc shell extracellular DA
Parameters: species or system mouse
Details: awake freely moving mice; i.p.: amphetamine 10 mg/kg, cocaine 20 mg/kg, JWH-018 0.3 mg/kg, AKB48 0.3 mg/kg
Protocol: Male ICR (CD-1®) mice, 25–30 g (ENVIGO. Harlan Italy; S. Pietro al Natisone, Italy) were anesthetized with Isoflurane (3%; 200 ml/min) and implanted with vertical dialysis probe (1 mm dialyzing portion) prepared with AN69 fibers (Hospal Dasco, Bologna, Italy) in the NAc shell (A + 1.4, L 0.4 from bregma, V-4.8 from dura) according to the mouse brain atlas by Paxinos and Franklin ([40]). On the day following surgery, probes were perfused with Ringer’s solution (147 mM NaCl, 4 mM KCl, 2.2 mM CaCl2) at a constant rate of 1 µl/min. Dialyzate samples (10 µl) were injected into an HPLC equipped with a reverse phase column (C8 3.5 um, Waters, USA) and a coulometric detector (ESA, Coulochem II) to quantify DA. The first electrode of the detector was set at +130 mV (oxidation) and the second at −175 mV (reduction). The composition of the mobile phase was as follows: 50 mM NaH2PO4, 0.1 mM Na2-EDTA, 0.5 mM n-octyl sodium sulfate, 15% (v/v) methanol, pH 5.5. The sensitivity of the assay for DA was 5 fmol/sample. At the end of each experiment, animals were sacrificed and their brains removed and stored in formalin (8%) for histological examination to verify the correct placement of the microdialysis probe.

Row | SMILES | NAc shell extracellular DA levels
1 | CC(N)Cc1ccccc1 (centres unmarked) [Amphetamine, reference compound] | significantly increased
2 | COC(=O)[C@H]1[C@@H](OC(=O)c2ccccc2)C[C@@H]2CC[C@H]1N2C [Cocaine, reference compound] | significantly increased
